Our source for the IC50 values is paper PMC3399817 (PLoS ONE, 2012).

Protein sequences, listed by entry. Tags and fused reporters are not part of them.
UniProt P50750, whole entry: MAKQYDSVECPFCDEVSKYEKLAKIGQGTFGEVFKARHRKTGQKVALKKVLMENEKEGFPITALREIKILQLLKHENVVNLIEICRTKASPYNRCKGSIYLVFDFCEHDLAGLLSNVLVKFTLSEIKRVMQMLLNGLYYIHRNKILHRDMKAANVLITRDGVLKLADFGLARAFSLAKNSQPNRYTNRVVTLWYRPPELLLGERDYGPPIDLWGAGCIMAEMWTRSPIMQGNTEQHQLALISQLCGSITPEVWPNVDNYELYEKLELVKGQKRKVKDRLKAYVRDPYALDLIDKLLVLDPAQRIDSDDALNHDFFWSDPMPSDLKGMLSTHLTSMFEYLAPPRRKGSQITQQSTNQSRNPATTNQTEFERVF

The assay has as its target CDK9 (Homo sapiens, UniProt P50750). Kind of assay: SelectScreen in vitro kinase IC50. Type of assay: biochemical. On the procedure:
First, we used Ambit's KINOMEscan™ technology to identify those kinases that are inhibited for substrate binding by the compounds, all assayed at 1 μM. Second, we used Invitrogen's SelectScreen® Biochemical Kinase Profiling Service to determine the in vitro IC50s for the compounds against specific kinases.

Structures are written as SMILES.

For orientation: IC50 means the concentration at which inhibition is half-maximal. Low values mean inhibition by little substance, high ones a need for much substance.

Compound `COc1ccc(-c2cc3nccn3c(Nc3ncccc3C(N)=O)n2)cc1OC.Cl.Cl` [BAY61-3606, 2-[7-(3,4-dimethoxyphenyl)-imidazo [1,2-c]pyrimidin-5-ylamino] nicotinamide dihydrochloride, reference compound] yielded a half-maximal inhibitory concentration (IC50) of 34.8 nM.
